The text below walks through data of PubChem BioAssay AID1467 (National Center for Advancing Translational Sciences (NCATS), 2008).

Protein sequences, listed by entry. Tags and fused reporters are not part of them.
UniProt P06280, whole entry: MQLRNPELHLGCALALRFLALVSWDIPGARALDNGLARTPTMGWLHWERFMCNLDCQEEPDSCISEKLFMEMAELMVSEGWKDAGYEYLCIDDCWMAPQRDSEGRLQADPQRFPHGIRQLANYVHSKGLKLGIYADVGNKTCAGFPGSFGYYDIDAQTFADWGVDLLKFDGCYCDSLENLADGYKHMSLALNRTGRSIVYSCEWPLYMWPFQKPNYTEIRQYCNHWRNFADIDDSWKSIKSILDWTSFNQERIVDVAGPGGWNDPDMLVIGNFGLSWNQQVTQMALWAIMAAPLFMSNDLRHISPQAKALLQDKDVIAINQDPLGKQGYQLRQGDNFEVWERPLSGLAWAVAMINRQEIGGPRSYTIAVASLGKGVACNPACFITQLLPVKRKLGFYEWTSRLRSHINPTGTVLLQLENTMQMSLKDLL

Only a part is listed here, and it is no random draw. Active and inactive are the calls of the source. The call rests on the fitted dose curve; in most records, active means well fitted curve in the direction sought with a large enough effect; inconclusive means small, poorly fitted or top-dose-only effect, or effect the other way, or another doubt; inactive means no such curve, though single readings can be large or run the other way.

The target of this test is Alpha-galactosidase A (Homo sapiens) (UniProt P06280). As to the kind of experiment: qHTS Assay for Inhibitors of Human alpha-Galactosidase at pH 4.5.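 Further: 0% = full activity with enzyme and -100% = basal without enzyme.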 The settings on record: purified enzyme, 4-MU-alpha-Gal fluorescence; at 105 µM (top of the series). The source says: NIH Chemical Genomics Center [NCGC]
NIH Molecular Libraries Probe Production centers Network [MLPCN]
Assay Submitter (PI): Wei Zheng
Alpha-galactosidase is a homodimeric glycoprotein that hydrolyzes the terminal alpha-galactosyl moieties from glycolipids and glycoproteins. Deficiency of this enzyme results in Fabry Disease with progressive accumulation of globotriaosylceramide and other glycosphingolipids in vascular endothelial cells that causes renal failure, myocardial infarction and stroke, and premature death in patients. It has been reported that the improper folding and trafficking of alpha-galactosidase resulting from the genetic mutations may account for a significant numbers of Fabry patients. […] We optimized this alpha-galactosidase assay in 1536-well plate format for identifying the novel small molecule inhibitors with the structures other than the sugar analogs in order to develop the new pharmacological chaperones. […]
This is a fluorogenic enzyme assay with 4-Methylumbelliferyl alpha-D-galactopyranoside as the substrate and human […] as the enzyme preparation. […] This fluorescence which can be detected by a standard fluorescence plate reader. […] In the AC50 values were determined from concentration-response data modeled with the standard Hill equation. […]
(6) Detect the assay plate in a ViewLux plate reader (PerkinElmer) with Ex=365 nm and Em=440nm. […]
On to `CN(CCCl)CCCl`, for which the activity change, negative = inhibition was inactive: -0.809%.
